Earlier results as cited in paper PMC9019904, “AD Informer Set: Chemical tools to facilitate Alzheimer's disease drug discovery” (Alzheimer's & Dementia : Translational Research & Clinical …, 2022).

System: protein product expressed by the gene target
Conditions: cited from earlier work

## COc1cc2c(cc1OC)C(=O)C(CC1CCN(Cc3ccccc3)CC1)C2.Cl (stereo not shown) [Donepezil Hydrochloride (E2020)]
  Reported on-target biochemical potency (nM): AChE: 11.6 nM
